# PMC12595434, “Development of retinoid nuclear receptor pathway antagonists through targeting aldehyde dehydrogenase 1A3” (iScience, 2025)
# The chains behind the UniProt entries cited, without tags or fusion partners. Residues count along the entry.
# UniProt P25101, 21-427: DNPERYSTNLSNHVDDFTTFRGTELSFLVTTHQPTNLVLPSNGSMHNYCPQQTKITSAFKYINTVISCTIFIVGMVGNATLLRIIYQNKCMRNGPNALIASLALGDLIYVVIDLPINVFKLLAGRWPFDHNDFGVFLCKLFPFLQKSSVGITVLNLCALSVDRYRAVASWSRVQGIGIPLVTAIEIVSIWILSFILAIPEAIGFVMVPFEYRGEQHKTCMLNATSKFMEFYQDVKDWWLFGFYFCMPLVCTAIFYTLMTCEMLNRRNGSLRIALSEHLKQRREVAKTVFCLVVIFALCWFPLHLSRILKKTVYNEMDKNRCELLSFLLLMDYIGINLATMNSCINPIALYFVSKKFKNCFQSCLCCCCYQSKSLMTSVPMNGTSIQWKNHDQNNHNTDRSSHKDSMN
# UniProt P35372, whole entry: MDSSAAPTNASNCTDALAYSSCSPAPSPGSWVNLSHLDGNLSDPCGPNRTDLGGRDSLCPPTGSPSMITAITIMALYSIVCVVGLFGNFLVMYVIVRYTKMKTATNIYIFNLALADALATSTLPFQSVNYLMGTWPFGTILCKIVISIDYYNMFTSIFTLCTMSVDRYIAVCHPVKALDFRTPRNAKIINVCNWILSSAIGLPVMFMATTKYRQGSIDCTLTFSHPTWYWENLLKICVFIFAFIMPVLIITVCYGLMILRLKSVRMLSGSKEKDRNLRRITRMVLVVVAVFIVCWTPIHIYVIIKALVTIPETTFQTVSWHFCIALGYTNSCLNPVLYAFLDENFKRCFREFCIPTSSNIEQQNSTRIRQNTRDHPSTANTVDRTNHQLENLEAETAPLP
# Key:
# Assay in all cases: Off-target profiling panel
# Eta agonist = Eta agonist (Homo sapiens, UniProt P25101); assay type: cell-based; settings: endothelin 1 300 nM; activation
# op-mu = op-mu (Homo sapiens, UniProt P35372); assay type: binding; settings: DAMGO 1,000 nM
# Experimental: To assess the in vivo pharmacokinetics of MBE1, we assessed the measured plasma concentrations following a 1 mg/kg intravenous or 10 mg/kg oral dose of MBE1 in fasted male CD-1 mice.
# Eta antagonist = Eta antagonist (Homo sapiens, UniProt P25101); assay type: cell-based; settings: BQ-123 75 nM
substance,measurement,setting,value
endothelin 1 [reference compound],Inhibition by reference at listed dose (%),Eta agonist,118.83 (activation) %
DAMGO [reference compound],Inhibition by reference at listed dose (%),op-mu,102.03%
BQ-123 [reference compound],Inhibition by reference at listed dose (%),Eta antagonist,99.32%
